In the assay the target is T1, α2 adrenoceptor (Rattus norvegicus, UniProt P22909).
T1 construct: Vas deferens tissue from male Wistar rats; from tissue; host or cells: isolated vas deferens of male Wistar rats
The assay can be described thus: α2-mediated norepinephrine release / clonidine antagonism in the stimulated rat vas deferens model. Further details: species or system male Wistar rats. Conditions: duplicate measurements, read-out: pA2 (converted). On the procedure:
The effect upon α2 -stimulated norepinephrine release of R(+)-terazosin and the S(-)-enantiomer and racemic compound were evaluated in the stimulated rat vas deferens model. Vas deferens tissue from male Wistar rats was cleaned of extraneous tissue and mounted between platinum stimulating electrodes and suspended in a tissue bath. The tissues were stimulated transmurally until the preparation stabilized, generally after about 60-80 minutes. After the twitch response became constant, a stimulus was applied at a frequency of 0.1 Hz for the duration of the dose-responsestudy.
Clonidine was used as a control for inhibiting the twitch response, with 10 minute contact times at increasing doses until the stimulated response was attenuated to zero. The stimulus was then reduced to once every five minutes and the tissue washed until the twitch response was restored. After this, the 0.1 Hz signal was again applied and clonidine was administered together with test compound. All responses were calculated as percent reduction in the twitch response.
(The pA2 values is the negative logarithm of the equilibrium dissociation constant for the antagonist-receptor complex, calculated from pharmacological functional data, and is a measure of the affinity of the antagonist at the particular receptor.)

Chains of the proteins cited; added tags and fusions are not shown.
UniProt P22909, whole entry: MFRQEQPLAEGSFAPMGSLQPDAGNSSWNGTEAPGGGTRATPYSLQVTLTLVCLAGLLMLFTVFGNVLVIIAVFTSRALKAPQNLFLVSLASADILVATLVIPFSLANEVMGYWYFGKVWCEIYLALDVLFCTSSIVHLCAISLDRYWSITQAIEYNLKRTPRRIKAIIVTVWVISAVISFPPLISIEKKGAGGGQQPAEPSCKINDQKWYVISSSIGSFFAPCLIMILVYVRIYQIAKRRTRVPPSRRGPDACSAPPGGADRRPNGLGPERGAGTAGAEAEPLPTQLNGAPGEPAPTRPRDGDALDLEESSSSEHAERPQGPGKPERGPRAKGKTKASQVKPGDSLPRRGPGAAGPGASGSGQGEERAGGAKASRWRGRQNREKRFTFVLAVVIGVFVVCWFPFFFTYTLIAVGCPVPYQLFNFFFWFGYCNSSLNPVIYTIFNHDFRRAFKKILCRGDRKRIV

The record followed here is patent publication US5212176A, “R(+)-terazosin” (Abbott Laboratories, priority 1990, dated 1993).

Where “and” joins values, the source holds several entries; their conditions need not be identical. Equal entries are not always repeated. Where two headings read alike, the source gives them in different places.

Regarding `COc1cc2nc(N3CCN(C(=O)[C@@H]4CCCO4)CC3)nc(N)c2cc1OC` [S(-), S(-)-2-[4-[(tetrahydro-2-furanyl)carbonyl]-1-piperazinyl]-6,7-dimethoxy-4-quinazolinamine], the Kb was 1.48 µM and 1.12 µM (1.0 μmolar concentration); 1.58 µM and 1.02 µM (3 μmolar concentration).
